Key:
[1] = Sirius T3 automated potentiometric titrations with n-octanol, log P / log D; conditions: n-octanol/water, pH 7.4
[2] = rat, in vivo; cited from earlier work

`Cc1nc2n(c(=O)c1CCN1CCC(c3noc4cc(F)ccc34)CC1)CCCC2` [risperidone] showed a logD [1] of 2.17.
For `CCN(C)C(=O)Oc1cccc([C@H](C)N(C)C)c1` [rivastigmine], the “Log BB” value [2] is given as 0.88.

— paper PMC12785511, “Integrative Profiling for BBB Permeability Using Capillary Electrochromatography, Experimental Physicochemical Parameters, and Ensemble Machine Learning” (International Journal of Molecular Sciences, 2025)
